Patent US20170355705A1 (GlaxoSmithKline Intellectual Property (No.2) Limited, priority 2014, published 2017)

Target: T1, SIRT1 (Homo sapiens, UniProt Q96EB6)
T1 sequence (Q96EB6 1-747): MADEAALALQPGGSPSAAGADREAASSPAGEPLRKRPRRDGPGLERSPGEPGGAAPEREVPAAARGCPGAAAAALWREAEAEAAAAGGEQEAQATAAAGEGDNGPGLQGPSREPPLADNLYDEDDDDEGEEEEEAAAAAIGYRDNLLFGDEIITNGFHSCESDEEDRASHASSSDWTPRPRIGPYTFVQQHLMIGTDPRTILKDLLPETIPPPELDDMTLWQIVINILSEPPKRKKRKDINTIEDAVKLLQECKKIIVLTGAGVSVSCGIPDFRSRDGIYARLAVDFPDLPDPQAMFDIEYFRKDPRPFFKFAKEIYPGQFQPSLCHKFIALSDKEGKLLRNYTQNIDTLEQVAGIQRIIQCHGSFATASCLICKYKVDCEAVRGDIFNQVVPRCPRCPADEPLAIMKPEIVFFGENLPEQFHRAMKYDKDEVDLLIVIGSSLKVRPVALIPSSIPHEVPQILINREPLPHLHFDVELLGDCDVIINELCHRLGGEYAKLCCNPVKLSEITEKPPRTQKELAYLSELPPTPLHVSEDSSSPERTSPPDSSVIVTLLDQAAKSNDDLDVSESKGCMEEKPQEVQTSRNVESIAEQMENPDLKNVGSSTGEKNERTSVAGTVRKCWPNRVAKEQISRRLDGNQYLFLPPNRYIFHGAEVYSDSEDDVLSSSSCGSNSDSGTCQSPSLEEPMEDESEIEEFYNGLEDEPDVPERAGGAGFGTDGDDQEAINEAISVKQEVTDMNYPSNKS
Test: Trp mass spectrometry assay of SIRT1 activity (EC1.5, percent maximum activation)
Assay type: biochemical
From the text: Mass spectrometry based assays were used to identify modulators of SIRT1 activity. […] The peptide was labeled with the fluorophore 5TMR (excitation 540 nm/emission 580 nm) at the C-terminus. The sequence of the peptide substrate was based on p53 with several modifications. In addition, the methionine residue naturally present in the sequence was replaced with the norleucine because the methionine may be susceptible to oxidation during synthesis and purification.
The Trp mass spectrometry assay was conducted as follows. […] Test compound was added at varying concentrations to this reaction mixture and the resulting reactions were monitored. […] The relative SIRT1 activity was then determined by measuring the amount of O-acetyl-ADP-ribose (OAADPR) formed (or, alternatively, the amount of deacetylated Trp peptide generated) by the NAD-dependent sirtuin deacetylation reaction in the presence of varying concentrations of the test compound versus control reactions lacking the test compound. The degree to which the test agent activated deacetylation by SIRT1 was expressed as EC1.5 (i.e., the concentration of compound required to increase SIRT1 activity by 50% over the control lacking test compound), and Percent Maximum Activation (i.e., the maximum activity relative to control (100%) obtained for the test compound). […]

In the case of Cc1ccc(-c2ccc3c(n2)N(C(=O)NCC(F)(F)F)[C@H]2CCN3C2)cn1 [Example 272, (4S)-7-(2-methylpyridin-4-yl)-N-(9H-purin-6-yl)-3,4-dihydro-1,4-methano pyrido[2,3-b][1,4]diazepine-5(2H)-carboxamide], the “TRP MAX RESP (percent maximum fold activation)” value is reported as “A (key: A: Fold activation ≧150%; B: Fold Activation <150%)”.
